Biological target: T1, GlyT2 (Rattus norvegicus, UniProt P58295)
T1 construct: expressed in transfected cells; host or cells: COS7
T1 sequence (P58295 1-799): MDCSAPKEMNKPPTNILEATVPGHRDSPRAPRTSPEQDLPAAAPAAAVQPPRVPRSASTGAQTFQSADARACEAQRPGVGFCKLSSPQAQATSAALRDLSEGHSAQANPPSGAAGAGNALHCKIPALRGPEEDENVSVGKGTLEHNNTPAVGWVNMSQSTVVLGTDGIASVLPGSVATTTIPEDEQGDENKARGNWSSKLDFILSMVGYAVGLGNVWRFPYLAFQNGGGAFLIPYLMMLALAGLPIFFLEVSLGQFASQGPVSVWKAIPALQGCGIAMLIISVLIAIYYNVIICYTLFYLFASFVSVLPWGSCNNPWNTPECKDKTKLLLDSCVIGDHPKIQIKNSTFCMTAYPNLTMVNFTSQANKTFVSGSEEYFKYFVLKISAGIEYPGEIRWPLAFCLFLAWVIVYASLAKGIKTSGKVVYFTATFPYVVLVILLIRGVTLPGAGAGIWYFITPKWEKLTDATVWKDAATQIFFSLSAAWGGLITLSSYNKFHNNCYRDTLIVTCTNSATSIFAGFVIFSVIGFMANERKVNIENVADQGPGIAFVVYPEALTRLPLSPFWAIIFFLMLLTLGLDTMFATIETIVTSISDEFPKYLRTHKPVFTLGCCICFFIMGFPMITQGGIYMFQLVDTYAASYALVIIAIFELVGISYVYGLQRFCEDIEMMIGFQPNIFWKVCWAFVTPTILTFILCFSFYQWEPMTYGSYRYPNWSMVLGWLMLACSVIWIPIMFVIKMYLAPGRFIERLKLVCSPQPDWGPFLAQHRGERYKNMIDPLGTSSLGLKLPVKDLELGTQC
Assay: [3H]glycine transport by recombinant GlyT2 expressed in COS7 cells
Type: cell-based
Settings: wtGlyT2
Description: Substitution mutants were generated with the QuikChange II Site-Directed Mutagenesis kit (Agilent Technologies, Santa Clara, CA, USA), using rGlyT2 or rGlyT1 subcloned in pCDNA3.[47] The complete coding region of all of the constructs was sequenced to verify that only the desired mutation had been introduced. […] COS7 cells were grown and transfected using Turbofect Transfection Reagent (Thermo Fisher Scientific, Waltham, MA, USA), following the manufacturer’s protocol (2 μL reagent/μg of DNA). Cells were incubated for 48 h at 37 °C until used.
At the end of the desired time (usually 10 min), reactions were washed and terminated by aspiration. […] A nonlinear curve fitting method was used to obtain IC50 values using Graphpad Prism software, version 6.0, Graphpad, San Diego, CA, USA.

Which EC50 does the source give for NCC(=O)O [Gly, glycine] here?
Its EC50 is 120 ± 26 µM.
